Our source for the inhibition values is PubChem BioAssay AID588549 (Broad Institute, 2011).

This is a selection; strong and weak results do not stand in their true shares. Some of these compounds have results that are not shown, active ones among them. Activity calls are given as the source filed them. No stated cut-off is given here; in the data, active means inhibition above about 8.5% (passing the limit was not always enough); inconclusive means no clear call, values can overlap the other calls.

The assay relates to Mycobacterium tuberculosis FadD28 fatty-acid-AMP ligase. As to the kind of experiment: inhibitors of FadD28 bisubstrate probe binding, primary screen, biochemical, fluorescence polarization, single point (AID 588549). Conditions: at 12.5 µM, stronger effect = higher value.
The inhibition is the relative decrease from the control value, in per cent. Turning to `CN(C)C1CCCC1OC(=O)C(O)(c1ccccc1)c1ccccc1` (stereo not given), the inhibition was inactive: -0.09%. Take `CN(C)c1ccc(C(=O)NCC2(N(C)C)CCCCC2)cc1`: the inhibition was inactive: -0.159%. The same measure for `Cc1ccccc1C(=O)NCC1(N2CCCCC2)CCCCC1`: inactive: -3.42%. The same measure for `COc1ccc(C(=O)NCC2(N(C)C)CCCCC2)cc1`: inactive: -1.96%. `O=C(NCC1(N2CCCCC2)CCCCC1)c1cccc(Br)c1`: the inhibition is inactive: -0.194%.

In the case of `Cc1cc(C(=O)NCC2(N3CCCCC3)CCCCC2)ccc1[N+](=O)[O-]`, the inhibition is inactive: -2.86%. With `CCN1CCCC(OC(=O)C2(O)c3ccccc3C=Cc3ccccc32)C1` (stereo not given), the inhibition is inactive: -2.77%. Take `C=CCN1CCN(CCOC(=O)C(O)(c2ccccc2)c2ccccc2)CC1`: the inhibition is inactive: -0.721%. The same measure for `CN1[C@@H]2CC[C@H]1CC(OC(=O)C(O)(c1ccccc1)c1ccccc1)C2` (stereo not given in full): inactive: -1.26%. As for `O=C(NCC1(N2CCCCC2)CCCCC1)c1cc([N+](=O)[O-])ccc1Cl`, the figure is inactive: -0.43%; as for `Cc1ccc(C(=O)NCC2(N3CCCCC3)CCCCC2)cc1`, inactive: -3.69%; as for `COc1cc(SC)ccc1C(=O)NCC1(N(C)C)CCCCC1`, inactive: -0.585%.

`CCN(CC)CC(C)C(C)OC(=O)C(O)(c1ccccc1)c1ccccc1` (stereo not given): the inhibition was inactive: -0.72%. Turning to `CC(C)N1C(=O)CC2(CCN(CCOC(=O)C(O)(c3ccccc3)c3ccccc3)CC2)C1=O`, the inhibition was inactive: -4.14%. Take `O=C(OC1CN2CCC1CC2)C(CO)(c1ccccc1)c1ccccc1` (stereo not given): the inhibition was inactive: -0.704%. `O=C(OCCN1CCCC1)C(O)(c1ccccc1)c1ccccc1`: the inhibition is inactive: -1.11%. The same measure for `CC(C)Oc1ccc(C(=O)NCC2(N(C)C)CCCCC2)cc1`: inactive: -0.382%; for `CN(C)c1cccc(C(=O)NCC2(N(C)C)CCCCC2)c1`: inactive: -3.33%; for `C=C(C)C#CC(O)(C(=O)OC1CCN(C)CC1)c1ccccc1` (stereo not given): inactive: -1.56%. On to `COc1ccc(Br)c(C(=O)NCC2(N3CCCCC3)CCCCC2)c1`, for which the inhibition is inactive: -21.7%.

For the molecule `COc1cc(C(=O)NCC2(N(C)C)CCCCC2)c([N+](=O)[O-])cc1OC`, the inhibition is inactive: -2.89%.

For the molecule `CN(C)C1(CNC(=O)c2ccc(Br)cc2)CCCCC1`, the inhibition was inactive: -3.99%.

As to `O=C(NCC1(N2CCCCC2)CCCCC1)c1cccc(Cl)c1`, the inhibition was inactive: -0.699%. For the molecule `COc1ccc(Cl)cc1C(=O)NCC1(N(C)C)CCCCC1`, the inhibition was inactive: -2.3%. In the case of `COc1cccc(C(=O)NCC2(N3CCCCC3)CCCCC2)c1`, the inhibition is inactive: -3.21%.
